Broadly, the IC50 is the concentration that inhibits the measured activity by half.

This test concerns the target T1, Cytochrome P450 1B1 (Homo sapiens, UniProt Q16678).
T1 sequence (Q16678 whole entry): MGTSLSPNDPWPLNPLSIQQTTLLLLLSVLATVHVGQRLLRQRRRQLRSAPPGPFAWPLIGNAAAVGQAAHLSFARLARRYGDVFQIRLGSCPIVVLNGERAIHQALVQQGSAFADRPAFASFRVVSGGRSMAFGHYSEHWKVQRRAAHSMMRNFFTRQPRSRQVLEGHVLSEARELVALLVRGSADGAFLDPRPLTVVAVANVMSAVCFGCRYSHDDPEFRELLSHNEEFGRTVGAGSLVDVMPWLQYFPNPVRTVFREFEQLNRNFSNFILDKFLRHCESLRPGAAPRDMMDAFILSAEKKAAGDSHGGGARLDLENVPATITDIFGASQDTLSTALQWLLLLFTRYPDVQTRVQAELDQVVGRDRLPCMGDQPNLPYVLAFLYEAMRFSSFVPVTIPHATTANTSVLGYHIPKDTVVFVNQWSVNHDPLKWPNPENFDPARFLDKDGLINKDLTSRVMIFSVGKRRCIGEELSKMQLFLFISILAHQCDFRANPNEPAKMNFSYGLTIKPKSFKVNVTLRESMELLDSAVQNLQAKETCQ
Nature of the test: Inhibition of recombinant human CYP1B1 expressed in supersomes using 7-ethoxyresorufin as substrate after 35 mins in presence of NADP+ by EROD assay.

As for `O=c1cc(-c2ccccc2)oc2c1ccc1ccccc12` [ALPHA-NAPHTHOFLAVONE], the IC50 was 5.9 nM.
